{"source": "patent US5420335A", "about": "“Parenteral nutrients based on watersoluble glycerol bisacetoacetates” (priority 1993, dated 1995)", "key": {"Water solubility": {"experiment": "Water solubility", "details": "in words"}, "[1]": {"experiment": "Mortality and gross toxicity on intravenous infusion", "method": "Water was available ad libitum at all times.\nThe vein was then ligated dorsally to the catheter. […] Body weights were measured daily."}}, "note": "“Also recorded” adds a separate entry of the source."}
{"substance": "Partially Reduced Pentaacetoacetyl-glucose [Compound 3]", "values": [{"measurement": "water solubility", "setting": "Water solubility", "result": "completely miscible with water at all concentrations"}, {"measurement": "mortality", "setting": "[1]; Example 7, 25 ml/day, half the initial rate", "result": "These rats also died"}, {"measurement": "survival (two rats)", "setting": "[1]; Example 7, 25 ml/day, pumping systems leaking", "result": 48, "unit": "h"}, {"measurement": "gross signs", "setting": "[1]; Example 7, initial rate", "result": "lack of urinary output; also recorded: Visible skin, feet and tail, of the rat were a bright red; also recorded: diffuse hemolysis of red blood cells"}, {"measurement": "mortality", "setting": "[1]; Example 7, initial rate, 6.77 grams per day as 13.5% solution i.v.", "result": "All 5 rats were dead within 24 hrs"}, {"measurement": "blood sugar", "setting": "[1]; Example 7, two surviving rats, 25 ml/day, leaking pumps, glucose in urine", "result": "elevated blood sugar"}, {"measurement": "lethality", "setting": "[1]; in words, conclusion", "result": "acutely lethal and toxic"}]}
